{"source": "ChEMBL document CHEMBL1127778", "about": "“Structure-activity relationship of novel distamycin a derivatives : synthesis and antitumor activity” (Bioorg Med Chem Lett, 1994)", "tested_on": "L1210", "experiment": "The activity in vitro on L1210 murine leukemia cells, activity expressed as IC50", "assay_type": "functional, cell-based, Mus musculus"}
{"smiles": "O=C(O)c1ccc(N(CCCl)CCCl)cc1", "values": [{"measurement": "IC50", "value": 17, "unit": "µg/mL"}]}
